According to PMC3735166, “Comparative Studies on Acetylcholinesterase Characteristics between the Aphids, Sitobion avenae and Rhopalosiphum padi” (Journal of Insect Science, 2013):

Tests used:
[1] = target: T1, purified AChE from S. avenae (Sitobion avenae, UniProt Q66S75); assay: Inhibition of purified AChE from S. avenae (Ellman method, 5 min preincubation); format: biochemical; conditions: ratio of I50 S. avenae / R. padi
T1 sequence (Q66S75 23-664): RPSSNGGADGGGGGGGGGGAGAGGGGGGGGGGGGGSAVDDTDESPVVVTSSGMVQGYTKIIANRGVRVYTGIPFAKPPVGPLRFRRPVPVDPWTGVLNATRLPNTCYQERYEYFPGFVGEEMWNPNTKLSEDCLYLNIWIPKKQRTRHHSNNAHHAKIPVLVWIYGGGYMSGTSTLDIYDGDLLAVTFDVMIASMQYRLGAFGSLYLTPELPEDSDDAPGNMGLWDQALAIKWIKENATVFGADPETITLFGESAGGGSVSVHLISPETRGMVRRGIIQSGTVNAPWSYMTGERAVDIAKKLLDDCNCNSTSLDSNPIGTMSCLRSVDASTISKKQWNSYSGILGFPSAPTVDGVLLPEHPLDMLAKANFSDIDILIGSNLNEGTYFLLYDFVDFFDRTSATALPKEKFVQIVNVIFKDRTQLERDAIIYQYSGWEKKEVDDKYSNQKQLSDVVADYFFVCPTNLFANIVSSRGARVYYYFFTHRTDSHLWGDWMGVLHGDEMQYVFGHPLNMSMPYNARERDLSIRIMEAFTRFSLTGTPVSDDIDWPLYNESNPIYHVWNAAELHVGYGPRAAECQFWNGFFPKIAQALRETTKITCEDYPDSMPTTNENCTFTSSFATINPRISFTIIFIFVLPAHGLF
Protocol: Purification of AChE from both aphid species was performed by affinity chromatography using procainamide as the affinity ligand. The procedure used in this study was according to the method of Gao and Zhu ([2001]) with some modifications, as follows:
(§1) Step 1: Preparation of crude extract. About 1.0 g apterous adults were homogenized in 10 mL ice-cold 0.1 M phosphate buffer (pH 7.5), containing 0.2 M NaCl and 0.5 % (v/v) Triton X-100 and three protease inhibitors (1 mM EDTA-Na2, 1 µM leupeptin, and 10 µM PMSF). The homogenate was filtered through cheesecloth and then centrifuged at 41,000 g, 4°C for 1 h. The supernatant, after being filtered through glass wool, was used as crude extract.
Step 2: Chromatography on sephadex G-25. […] The fractions (5 ml each) were collected at the flow rate of 45 mL/h at 4°C. All the fractions containing the AChE activity were collected as the enzyme resource for the next step.
Step 3: Procainamide affinity chromatography and removal of procainamide and condensation. The procainamide-based AChE affinity column was made according to the instructions from the manufacturer. […] The collected AChE dialyzed against 0.05 M, pH 7.5 phosphate buffer three times for 3 h. The enzyme was stored at 4°C and used as the enzyme source.
(§2) AChE activities were determined according to the method of Ellman et al. ([1961]) modified by Gao ([1987]), using ATCh, PrTCh, MeTCh and BuTCh as substrates. The AChE activities were determined at 6 substrate concentrations from 0.15625 to 5 mM based on the reaction at 30°C for 15 min and the reaction was stopped by the addition of 900 µL, DTNB (0.125 mM) with 40% ethanol, then the optical density (OD) was measured at 412 nm by spectrophotometer (Lambda Bio 40).
(§3) The value of median inhibition concentration (I50) for the inhibitors were calculated based on log (inhibitor concentration) vs. probit (percentage of inhibition) linear regression.

[2] = target: T2, crude extract AChE from S. avenae (Sitobion avenae, UniProt Q66S75); assay: Inhibition of crude extract AChE from S. avenae (Ellman method, 5 min preincubation); format: biochemical; conditions: ratio of I50 S. avenae / R. padi
T2 sequence (Q66S75 23-664): T1 sequence (Q66S75 23-664)
Protocol: as §1, §2, §3

Structure (SMILES) | fold less sensitive to inhibition (I50 fold higher), S. avenae versus R. padi [1] | fold less sensitive to inhibition, S. avenae versus R. padi [2]
CS/C(C)=N\OC(=O)N(C)SN(C)C(=O)O/N=C(\C)SC [Thiodicarb] | 1.7 fold | 8.1 fold
CNC(=O)ON=C(C)SC [Methomyl] | 1.3 fold | 4.3 fold
Cc1nc(N(C)C)nc(OC(=O)N(C)C)c1C [Pirimicarb] | 1.6 fold | 5.4 fold
